Measured values published in US8092833B2, “Compositions containing inclusion complexes” (California Institute of Technology, priority 2000, dated 2012).

Protein sequences, listed by entry. Tags and fused reporters are not part of them.
UniProt P02786, whole entry: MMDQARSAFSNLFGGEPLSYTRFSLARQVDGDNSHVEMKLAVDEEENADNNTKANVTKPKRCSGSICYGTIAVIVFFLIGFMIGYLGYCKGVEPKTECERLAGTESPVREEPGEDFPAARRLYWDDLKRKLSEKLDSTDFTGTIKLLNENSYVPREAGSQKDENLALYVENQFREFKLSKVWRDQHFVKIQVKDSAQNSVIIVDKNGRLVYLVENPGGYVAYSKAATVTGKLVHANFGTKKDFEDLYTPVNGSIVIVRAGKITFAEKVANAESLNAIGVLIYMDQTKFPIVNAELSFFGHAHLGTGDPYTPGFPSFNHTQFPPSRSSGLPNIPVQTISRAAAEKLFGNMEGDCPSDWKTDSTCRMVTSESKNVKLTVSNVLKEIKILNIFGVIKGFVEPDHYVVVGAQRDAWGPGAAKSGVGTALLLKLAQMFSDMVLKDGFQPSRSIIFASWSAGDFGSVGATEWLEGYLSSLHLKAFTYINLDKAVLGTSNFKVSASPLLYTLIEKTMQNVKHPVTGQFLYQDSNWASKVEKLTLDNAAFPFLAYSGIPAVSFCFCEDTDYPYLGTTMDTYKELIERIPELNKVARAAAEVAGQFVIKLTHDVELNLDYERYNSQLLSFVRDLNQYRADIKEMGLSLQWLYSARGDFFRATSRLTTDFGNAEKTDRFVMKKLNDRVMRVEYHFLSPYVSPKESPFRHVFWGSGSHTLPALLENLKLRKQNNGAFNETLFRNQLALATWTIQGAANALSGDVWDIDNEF

Columns and labels:
[1] = biological target: T1, transferrin receptors on PC3 cells (Homo sapiens, UniProt P02786); assay: Competition with FITC-transferrin for transferrin receptors on PC3 cells, FACS; assay type: binding; conditions: 250 nM FITC-Tf
T1 construct: endogenous in cells; host or cells: PC3 cells
Experimental: PC3 cells were incubated with 250 nM fluorescein-transferrin (FITC-TF) with various amounts of unlabeled transferrin and transferrin-PEG-Ad. FITC-hTF cell association was assessed by FACS analysis.
PC3 cells were plated in 6 well plates at 125,000 cells/ml. After 24 hours, the cells were exposed to 250 nM FITC-Tf mixed with various concentrations of hTf, hTf-PEG-Ad (synthesized by oxidation of hTf), hTf-PEG-Ad (synthesized by VS-lysine reaction and purified) and hTf-(PEG-Ad)2 (synthesized by VS-lysine reaction and purified). Uptake after 20 minutes exposure was determined by FACS. Unlike the Tf-PEG-AD synthesized by transferrin oxidation, the Tf-PEG-Ad compounds synthesized by lysine coupling competes effectively with the FITC-Tf for receptors on the PC3 cell surfaces.

[2] = Iron-loading efficiency of transferrin compounds (A465/A280); assay type: physicochemical
Experimental: 40 mg of apo-transferrin-based compound (apo-transferrin or apo-transferrin-PEG-Ad) was dissolved in 700 μL of dH2O. To this solution was added 200 μL of 5 mM Iron Citrate and 100 μL of 84 mg/mL NaHCO3. This solution was allowed to stand for 2-3 hours and then dialyzed against PBS overnight. The iron-loading efficiency was calculated by determining ratio of absorbance at 465 nm (from the oxidized iron) to the ratio of absorbance at 280 nm (from the tryptophan residues in the protein) and normalizing to the A465/A280 ratio of commercially available holo-transferrin. The iron loading efficiency for transferrin, transferrin in the oxidation buffer (sodium acetate pH 5) and freshly oxidized transferrin was determined and shown in FIG. 21.
Apo-transferrin and Tf-PEG-Ad were iron-loaded according to the procedure described in Example 55. The extent of iron-loading was quantified as described. The iron-loading efficiency of Tf-PEG-Ad synthesized by coupling via lysine groups was nearly 100%.

competition with FITC-transferrin for receptors [1]	Substance	also measured
competes very efficiently	transferrin: unlabeled human transferrin	
	freshly oxidized transferrin: transferrin oxidized with sodium periodate	effect of oxidization on iron loading efficiency [2]: reduces the iron loading efficiency
competes very poorly	transferrin-PEG-Ad: human transferrin oxidized at carbohydrate groups and coupled to Ad-PEG5000-NH-NH2	
	Tf-PEG-Ad: human transferrin coupled via lysine groups to Vinylsulfone-PEG3400-Ad	iron-loading efficiency ([2]; synthesized by coupling via lysine groups, normalized to holo-transferrin): ~100%
